Measured values from PubChem BioAssay AID1117324 (Cheminformatics & Chemogenomics Research Group (CCRG), …, 2015).
Active and inactive are the calls of the source. The rule behind the calls is not given here.

Test system: VEGF-stimulated ADSC/ECFC co-culture, nuclear area imaging
Assay: nuclear area loss in endothelial-stromal co-culture, dose response, cell-based, VEGF stimulation, IC50 (AID 1117324)

C/C1=C2N=C(/C=C3N=C(/C(C)=C4\[N-][C@@](C)([C@@H]5N=C1[C@](C)(CCC(=O)NC[C@@H](C)OP(=O)([O-])O[C@H]1[C@@H](O)[C@@H](n6cnc7cc(C)c(C)cc76)O[C@@H]1CO)[C@H]5CC(N)=O)[C@@](C)(CC(N)=O)[C@@H]4CCC(N)=O)[C@@](C)(CC(N)=O)[C@@H]\3CCC(N)=O)C(C)(C)[C@@H]/2CCC(N)=O.[C-]#N.[Co+3]
IC50: inactive: > 10 µM
